A short description of data set [1]: Hygroscopicity, weight gain in 1 week at relative humidity. The format is physicochemical. Particulars: solid state.
The conditions of data set [2]: 0.05 M phosphate buffer, 0.5 mg/mL, ambient.

The results in this text go back to patent US20060074046A1, “Oral administration of decitabine salt” (priority 2004, published 2006).

Where two headings read alike, the source gives them in different places.

As to decitabine citrate [Compound 12], the entries for the “Hygroscopicity-% weight gain in 1 week” value in data set [1] (56% RH) and in data set [1] (98% RH) were 5.20% and 7.03%, respectively. Also, the “Potency Found (%) At pH 2.5” value in data set [2] (t = 0.5 hr) came to 57.50%; in data set [2] (t = 24 hr) it was 50.64%. Further, the entries for the “Potency Found (%) At pH 7.0” value in data set [2] (t = 0.5 hr) and in data set [2] (t = 24 hr) were 92.01% and 88.35%, respectively.

Take decitabine succinate [Compound 14]: the “Hygroscopicity-% weight gain in 1 week” value in data set [1] (56% RH) came to 5.56%; in data set [1] (98% RH) it was 8.25%. Moreover, the figures for the “Potency Found (%) At pH 2.5” value in data set [2] (t = 0.5 hr) and in data set [2] (t = 24 hr) were 62.81% and 54.89%, respectively. In addition, the “Potency Found (%) At pH 7.0” value in data set [2] (t = 0.5 hr) amounted to 87.35%; in data set [2] (t = 24 hr), 80.58%.
